Laboratory results published in patent US8455439B2, “Antidotes for factor Xa inhibitors and methods of using the same in combination with blood coagulating agents” (Portola Pharmaceuticals, Inc., priority 2008, dated 2013).

Amino acid sequences for entries named in this document (tags omitted). Residues count along the entry.
UniProt P00742, 41-179 partner limits assumed: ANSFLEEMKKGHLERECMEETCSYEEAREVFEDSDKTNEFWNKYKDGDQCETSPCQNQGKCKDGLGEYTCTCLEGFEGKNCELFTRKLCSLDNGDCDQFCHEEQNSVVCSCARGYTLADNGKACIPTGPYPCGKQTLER
UniProt P00742, 235-488 limits assumed: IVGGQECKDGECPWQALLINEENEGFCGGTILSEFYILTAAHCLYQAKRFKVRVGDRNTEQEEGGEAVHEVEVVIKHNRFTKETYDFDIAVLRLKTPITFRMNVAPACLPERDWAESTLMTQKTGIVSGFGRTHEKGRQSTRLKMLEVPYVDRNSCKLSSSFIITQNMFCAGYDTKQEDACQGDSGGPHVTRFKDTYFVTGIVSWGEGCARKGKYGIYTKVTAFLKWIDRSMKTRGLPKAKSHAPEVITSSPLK

Legend:
Assay type in all cases: biochemical
[1] = test system: pooled human plasma; assay: Prothrombin time (PT) clotting assay, MLA Electra 800 automatic coagulation timer; conditions: for correction of anticoagulation: 1.9 μM recombinant antidote; for Fold Change: PT
[2] = test system: pooled human plasma; assay: aPTT clotting assay, MLA Electra 800 automatic coagulation timer; conditions: for Fold Change: aPTT
Method: (§1) Two clotting assay formats were used to test the effects of factor Xa inhibitors and the antidote on clotting prolongation. In the first format, a 96-well plate was used to measure multiple samples at the same time. In the second assay format, aPTT was measured with a conventional coagulation instrument (MLA Electra 800 automatic coagulation timer).
In FIG. 19, the effect of r-Antidote on reversal of anticoagulation by a low molecular weight heparin (LMWH enoxaparin, Sanofi-Aventis) was tested in a human plasma clotting assay. The effect of 1 antiXa Unit/mL LMWH on aPTT prolongation of plasma and the reversal of inhibitory effect was measured by a MLA Electra 800 Automatic coagulation timer. 100 μL pooled citrate anticoagulated human plasma was mixed with enoxaparin and different concentrations of antidote. Prior to measurement of clotting time, aPTT reagent (Actin FS, Dade Behring) and CaCl2 were added per manufacturer's instructions.

[3] = target: purified active fXa (Homo sapiens, UniProt P00742); assay: fXa chromogenic activity (Spectrozyme-fXa): inhibition by fXa inhibitor and reversal by antidote
[4] = test system: thrombin generation in human plasma; assay: Thrombin generation assay in platelet poor or platelet rich plasma; conditions: 250 nM betrixaban, FIG. 23
Method: PRP and PPP were prepared by spinning the anticoagulated blood at ˜100× gravity or 1000× gravity for 20 minutes, respectively, at room temperature. 75-100 microliter (uL) plasma was mixed with CaCl2 and Z-Gly-Gly-Arg-aminomethylcoumarin (Z-GGR-AMC, a thrombin fluorogenic substrate). Tissue factor (Innovin, Dade Behring) was added to initiate the generation of thrombin. For a typical experiment, the reaction mixture contained 15 millimolar (mM) Ca^2+, 100 micromolar (μM) Z-GGR-AMC, and 0.1 nanomolar (nM) tissue factor (TF) (Innovin). Thrombin formation was monitored continuously at 37° C. by a fluorometric plate reader (Molecular Devices) measuring the relative fluorescence units (RFU). Inhibitor and antidote, when present, were pre-incubated with plasma for 20 minutes at room temperature before initiation of thrombin generation.
The results of various experiments using this assay may be found in FIGS. 4, 6, and 9.
PRP and PPP were prepared by spinning the anticoagulated blood at ˜100× gravity or 1000× gravity for 20 minutes, respectively, at room temperature. […] Tissue factor (Innovin, Dade Behring) and CaCl2 were added to initiate the generation of thrombin. For a typical experiment, the reaction mixture contained 15 millimolar (mM) Ca^2+, 100 micromolar (μM) Z-GGR-AMC, and 0.1 nanomolar (nM) tissue factor (TF) (Innovin). Thrombin formation was monitored continuously at 37° C. by a fluorometric plate reader (Molecular Devices) measuring the relative fluorescence units (RFU). When present, the inhibitor and the antidote were pre-incubated with plasma for 15 minutes at room temperature before initiation of thrombin generation. Recombinant VIIa (rVIIa, Novoseven), when present, was added before addition of TF to initiate the reaction.

[5] = test system: human platelet poor plasma; assay: Clotting prolongation assay, 96-well plate format (OD405 turbidity change, aPTT reagent); conditions: for correction of the inhibitory effect of enoxaparin: FIG. 18
Method: as §1
In the 96-well plate format method, human platelet poor plasma or platelet rich plasma was prepared similarly as procedures in Example 2. 75-100 μL plasma was recalcified with CaCl2, incubated at 37° C. for 3 minutes and clot formation was initiated by adding tissue factor (Innovin, Dade Behring) or an aPTT reagent (Actin FS, Dade Behring). Change of OD405 was monitored continuously by a plate reader (Molecular Devices). Clotting time was defined as the time (second) when the half maximal value of absorbance (0D405 nm) change was reached. Factor Xa inhibitor and antidote, when present, were pre-incubated with plasma at room temperature for 20 minutes before initiation of the reaction.
In FIG. 18, the effect of r-Antidote to reverse the inhibitory effect of LMWH enoxaparin (Sanofi-Aventis) was tested by turbidity changes in human plasma. Enoxaparin (0-1.25 U/mL) was incubated at 22° C. for 20 min with or without 508 nM r-Antidote. Turbidity changes were measured according to procedures described in Example 3. 508 nM r-Antidote substantially corrected (>75%) the inhibitory effect of 0.3125-1.25 U/mL Enoxaparin.
Turbidity change of human platelet poor plasma (PPP) with an aPTT reagent (Actin FS) was monitored according to procedure described in Example 3.

[6] = 380 nM r-Antidote, 1 μM rivaroxaban
[7] = 760 nM r-antidote + 0.55 nM rVIIa, 1 μM rivaroxaban
[8] = 1 μM apixaban + 380 nM rAntidote
[9] = 1 μM apixaban + 760 nM rAntidote
[10] = 1 μM apixaban + 1.52 μM rAntidote
[11] = […] apixaban + 1.52 μM rAntidote
[12] = […] apixaban + 1.90 μM rAntidote
[13] = 300 nM Betrixaban + 570 nM r-Antidote
[14] = 300 nM Betrixaban + 760 nM r-Antidote
[15] = 300 nM Betrixaban + […] r-Antidote
[16] = 380 nM r-antidote, 400 nM betrixaban (Example 17)
[17] = 400 nM Betrixaban + 380 nM rAntidote (Table 17)
[18] = 400 nM Betrixaban + 570 nM rAntidote
[19] = 400 nM Betrixaban + 760 nM rAntidote (Table 17)
[20] = 400 nM Betrixaban + 1520 nM rAntidote
[21] = 400 nM Betrixaban + […] rAntidote (Table 17)
[22] = 760 nM r-antidote, 400 nM betrixaban (Example 17)

B1: r-Antidote: fXa derivative lacking amino acid residues 6-39 of SEQ ID NO. 3, S379A, expressed in CHO cells, linker removed (SEQ ID NO. 13) (protein)
chain: ANSFLFWNKYKDGDQCETSPCQNQGKCKDGLGEYTCTCLEGFEGKNCELFTRKLCSLDNGDCDQFCHEEQNSVVCSCARGYTLADNGKACIPTGPYPCGKQTLERIVGGQECKDGECPWQALLINEENEGFCGGTILSEFYILTAAHCLYQAKRFKVRVGDRNTEQEEGGEAVHEVEVVIKHNRFTKETYDFDIAVLRLKTPITFRMNVAPACLPERDWAESTLMTQKTGIVSGFGRTHEKGRQSTRLKMLEVPYVDRNSCKLSSSFIITQNMFCAGYDTKQEDACQGDAGGPHVTRFKDTYFVTGIVSWGEGCARKGKYGIYTKVTAFLKWIDRSMKTRGLPKAKSHAPEVITSSPLK
[1]; [6]
  PT: 21.5 ± 0.2 s
  correction of PT: 14%
[1]; 380 nM r-Antidote, absence of rivaroxaban, FIG. 24A
  effect on PT: slightly reduced the PT
[1]; 380 nM r-antidote + 2.2 nM rVIIa, 1 μM rivaroxaban (complete correction)
  resulting PT: 12 s
[1]; 760 nM r-Antidote + 0.55 nM rVIIa, 1 μM rivaroxaban, listed as r-antidote
  reversal of rivaroxaban induced anticoagulation, combination: close to complete correction
[1]; 760 nM r-Antidote, 1 μM rivaroxaban
  correction of PT: 28%
[1]; [7]
  resulting PT: 12 s
  reversal of rivaroxaban induced anticoagulation, combination: great reversion
[1]; [8]
  PT: 15.3 s
  Fold Change: 1.09
[1]; [9]
  PT: 14.9 s
  Fold Change: 1.06
[1]; [10]
  PT: 14.2 s
  Fold Change: 1.01
[1]; 1 μM apixaban + […] rAntidote
  PT: 14.2 s
  Fold Change: 1.01
[1]; 1.52 μM rAntidote alone, no inhibitor
  PT: 14 s
[1]; 1.90 μM rAntidote alone, no inhibitor
  PT: 14.2 s
[1]; 1 μM rivaroxaban, FIG. 20
  correction of anticoagulation: 100%
[1]; […] apixaban
  correction of anticoagulation: 97%
[1]; [11]
  Fold Change: 1.04
  PT: 14.6 s
[1]; [12]
  Fold Change: 1.01
  PT: 14.3 s
[2]; [13]
  % Correction of anti-coagulation: 88%
  aPTT: 38.3 s
  Fold Change: 1.09
[2]; [14]
  % Correction of anti-coagulation: 88%
  aPTT: 38.2 s
  Fold Change: 1.09
[2]; [15]
  % Correction of anti-coagulation: 90%
  aPTT: 38.1 s
  Fold Change: 1.08
[2]; 380 nM r-Antidote + 258 nM fIX, 400 nM betrixaban
  aPTT: 33 s
[2]; [16]
  aPTT: 38.6 s
  correction of aPTT: 25%
[2]; [17]
  % Correction of anti-coagulation: 61%
  aPTT: 47.1 s
[2]; [18]
  % Correction of anti-coagulation: 85%
  aPTT: 39.9 s
  Fold Change: 1.13
[2]; [19]
  % Correction of anti-coagulation: 85%
  aPTT: 39.9 s
[2]; [20]
  % Correction of anti-coagulation: 86%
  aPTT: 39.4 s
  Fold Change: 1.12
[2]; [21]
  % Correction of anti-coagulation: 92%
  aPTT: 37.8 s
[2]; 760 nM r-Antidote + 258 nM fIX, 400 nM betrixaban
  aPTT: 26.9 s
[2]; [22]
  aPTT: 31.2 s
  correction of aPTT: 40%
[2]; 1520 nM rAntidote alone, no inhibitor
  aPTT: 38.8 s
[2]; […] r-Antidote + 258 nM fIX, 400 nM betrixaban, FIG. 25
  reversal of the anticoagulant effect, combination: complete in-vitro reversal
[2]; […] r-antidote, 400 nM betrixaban (Example 17)
  correction of aPTT: 42%
[2]; 400 nM Betrixaban + 380 nM rAntidote
  Fold Change: 1.34
[2]; 400 nM Betrixaban + 760 nM rAntidote
  Fold Change: 1.13
[2]; 400 nM Betrixaban + […] rAntidote
  Fold Change: 1.07
[2]; 1520 nM rAntidote alone
  Fold Change: 1.10
[3]; 186 nM r-Antidote, apixaban
  reversal of apixaban: > 70%
[3]; 186 nM r-Antidote, betrixaban and rivaroxaban
  correction of inhibition: > 95%
[3]; in the in vitro assays
  affinity compared with the plasma derived protein: comparable affinity
[4]; r-Antidote + 100 nM rVIIa, at each r-Antidote concentration
  thrombin generation activity, combination effect: further increased thrombin generation activity
[4]; r-Antidote alone
  reversal of anticoagulant effect of betrixaban, relative thrombin generation activity: independently reversed the anticoagulant effect
[5]; 50 nM r-Antidote, 1.25 U/mL enoxaparin
  correction of the inhibitory effect of enoxaparin: > 75%
[5]; 125 nM r-Antidote, 125 nM betrixaban, FIG. 26
  reversal of the anticoagulant effect of betrixaban: substantially reversed
[5]; 170 nM fX + 125 nM r-Antidote, 125 nM betrixaban, FIG. 26
  correction of the inhibitory effect of betrixaban, combination: further corrected
[5]; 508 nM r-Antidote, 0.3125-1.25 U/mL Enoxaparin
  correction of the inhibitory effect of enoxaparin: > 75%
